# Reference: patent publication US9295674B2, “Metalloporphyrin neurological treatments” (dated 2016)
# pIC50: −log10 of the molar value.
# What was measured:
# hippocampal synaptosomes = assay: Oxygen consumption rates (OCR) in isolated hippocampal synaptosomes of treated rats; conditions: for Oxygen consumption rates (OCR) in isolated hippocampal synaptosomes: 48 h after injection in rats (FIGS. 8A-8B)
# [1] = Phase 1 human clinical trials; cited from earlier work
# [2] = following subcutaneous injection; cited from earlier work
# [3] = cited from earlier work
# 4HNE assay by HPLC = conditions: read-out: 4HNE IC50
# [4] = test system: MPTP neurotoxicity in C57BL/6 mice; assay: MPTP neurotoxicity in mice; conditions: 15 mg/kg×3 s.c. daily, beginning 1 h prior to MPTP
# [5] = Peroxynitrite destruction (stop-flow)
# [6] = Net charge under physiological conditions of pH
# [7] = Superoxide destruction measured by pulse radiolysis
# [8] = test system: kainate-induced status epilepticus, hippocampus; assay: Kainate-induced status epilepticus in rats (Fluoro-Jade B); conditions: hilus and CA3 (FIGS. 6A-7B)
# microglia (iba1) = assay: Pilocarpine-induced hippocampal microglial activation (Iba1 staining); conditions: pilocarpine treated rats; 5 mg/kg s.c. 60 or 90 min after pilocarpine, every 4 h; 24 h
# [9] = Plasma and brain levels / BBB penetration after single s.c. dose in mice
# [10] = AEOL10150 brain concentrations / BBB transit in rats after s.c. injection; conditions: rat
# [11] = test system: pilocarpine-treated rats, hippocampus; assay: Combination therapy with atropine and diazepam in pilocarpine-treated rats
# [12] = SOD activity: inhibition of the reduction of epinephrine by superoxide at pH 10.2
# [13] = Catalase (CAT) activity / hydrogen peroxide dismutation by Clark(e) oxygen electrode; conditions: catalase activity by Clarke electrode
# [14] = test system: pilocarpine-induced status epilepticus, hippocampus; assay: Pilocarpine-induced status epilepticus in rats (Fluoro-Jade B, HPLC oxidative stress indices)
# [15] = pilocarpine rats, injected 60 min after and every 4 h for 24 h
smiles,measurement,setting,value
C=C(C)[C@H]1CN[C@H](C(=O)O)[C@H]1CC(=O)O,Oxygen consumption rates (OCR) in isolated hippocampal synaptosomes,hippocampal synaptosomes,decreased
CCn1cc[n+](CC)c1C1=C2C=CC3=[N+]2[Mn]24[n]5c1ccc5C(c1n(CC)cc[n+]1CC)=C1C=CC(=[N+]12)C(c1n(CC)cc[n+]1CC)=c1ccc([n]14)=C3c1n(CC)cc[n+]1CC,Adverse events,[1],low incidence of adverse events
same,Pharmacokinetic properties,[2],favorable pharmacokinetic properties
same,Water solubility,[3],water soluble
same,pIC50,4HNE assay by HPLC,6.57
same,Protection against MPTP neurotoxicity,[4],protects against MPTP
same,k(ONOO−),[5],1.01 × × 10^7 M^−1s^−1
same,Net charge,[6],at least +5
same,kcat(O2•−),[7],6.78 × × 10^7 M^−1 s^−1
same,Kainate-induced hippocampal cell death,[8],attenuates
same,Hippocampal microglial activation (Iba1),microglia (iba1),significantly attenuated
same,Concentration in the mouse brain,[9]; single s.c. injection 15 mg/kg,150 to 200 pmol/g
same,Estimated brain concentration based on molecular weight,"[9]; single s.c. injection 15 mg/kg, mouse brain",100 to 200 nM
same,BBB penetration,[9]; systemic administration in mice,penetrates the BBB
same,BBB transit,[10]; s.c. administration,transits the BBB
same,AEOL 10150 levels in the brain (hippocampus and cortex),[10]; systemic administration,neuroprotective concentrations
same,"Effect of adding to atropine + diazepam on GSH, GSSG, GSH/GSSG and 3-nitrotyrosine/tyrosine","[11]; 5 mg/kg s.c. 60 min after pilocarpine, every 4 h, atropine 1 mg/kg i.m., diazepam 10 mg/kg i.p., hippocampus 24 h",enhance the effects of atropine and diazepam
same,SOD activity on a weight basis relative to CuZnSOD,[12],surpasses that of CuZnSOD
same,SOD Activity,[12]; unit = amount inhibiting one-half the reduction of epinephrine by superoxide at pH 10.2,43103 U/mg
same,Maximal respiratory capacity,hippocampal synaptosomes; [15],rescued
same,"Pilocarpine-induced decrease of maximal respiratory rates, ATP turnover, baseline respiration and glycolytic rates",hippocampal synaptosomes; [15],largely prevented
same,CAT,[13],2.2 min⁻¹
same,Protection of oxidative stress indices,"[14]; 30 min pretreatment, compared with 60 and 90 min post-pilocarpine, 48 h (FIG. 14B)",maximum protection
same,Pilocarpine-induced hippocampal cell death,[14]; hilus and CA3 (FIGS. 5A-5B),attenuates
same,Pilocarpine-induced GSH/GSSG changes,"[14]; hippocampus, post-treatment (FIGS. 2A-2C)",attenuates
same,Pilocarpine-induced Cysteine/Cystine changes,"[14]; hippocampus, post-treatment (FIGS. 3A-3C)",attenuates
same,Pilocarpine-induced increase in 3-Nitrotyrosine/Tyrosine ratio,"[14]; hippocampus, post-treatment (FIGS. 4A-4B)",attenuates
same,Hippocampal cell loss in the hilar and CA3 regions (Fluoro-Jade B),"[14]; injected s.c. 90 min after pilocarpine, sacrificed 24 h thereafter",significantly decrease
same,Oxidative stress indices (3-NT/tyr and GSH/GSSG ratios) in the hippocampus,"[14]; injection 90 minutes after pilocarpine, 24 hours later",statistically significant inhibition
same,"Oxidative stress indices (GSH, GSSG, GSH/GSSG ratios) in the hippocampus","[14]; injection at 60 or 90 minutes after pilocarpine, 5 mg/kg s.c. every 4 h",inhibition
same,Oxidative stress indices (3-NT/tyr and GSH/GSSG ratios) in the hippocampus,"[14]; pilocarpine-treated rats, 24 h post-SE",significantly decreased
CC[C@@H]1C(=O)OC[C@@H]1Cc1cncn1C,Deaths in the group,[11]; pilocarpine 340 mg/kg alone,3 of 5
same,OCR in hippocampal synaptosomes vs. saline-treated rats,"hippocampal synaptosomes; 16 hours after injection, n=2 rats per group",decreased OCR
same,Oxygen consumption rates (OCR) in isolated hippocampal synaptosomes,hippocampal synaptosomes,decreased
